# Molecular target: α-smooth muscle actin (α-SMA) (mouse) (UniProt P62737)
# Test: IF colocalization (JACoP) of VT680 phage with marker, CP mouse pancreas sections
substance,measurement,value
SLTNSSF (SEQ ID NO: 27) phage clone (peptide),"mean Manders' correlation coefficient (MCC), fraction of phage overlapping cell marker",0.06
